Measured values taken from ChEMBL document CHEMBL1144372, “Novel 2-amino-4-oxo-5-arylthio-substituted-pyrrolo[2,3-d]pyrimidines as nonclassical antifolate inhibitors of thymidylate synthase” (Bioorg Med Chem Lett, 2005).

Sequences of proteins named here, by UniProt entry; tags and fusion partners are left off.
UniProt C3SWJ7, whole entry: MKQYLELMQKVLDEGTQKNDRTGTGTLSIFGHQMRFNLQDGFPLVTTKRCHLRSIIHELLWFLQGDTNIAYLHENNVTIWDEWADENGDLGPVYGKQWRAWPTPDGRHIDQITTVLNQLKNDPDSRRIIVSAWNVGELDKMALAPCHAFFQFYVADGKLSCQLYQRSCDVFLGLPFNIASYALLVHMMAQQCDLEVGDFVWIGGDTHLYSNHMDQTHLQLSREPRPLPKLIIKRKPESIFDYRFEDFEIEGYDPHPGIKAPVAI

Legend:
Dihydrofolate reductase = molecular target: T1, Dihydrofolate reductase (Homo sapiens, UniProt P00374); experiment: Inhibitory concentration against human dihydrofolate reductase
T1 sequence (P00374 whole entry): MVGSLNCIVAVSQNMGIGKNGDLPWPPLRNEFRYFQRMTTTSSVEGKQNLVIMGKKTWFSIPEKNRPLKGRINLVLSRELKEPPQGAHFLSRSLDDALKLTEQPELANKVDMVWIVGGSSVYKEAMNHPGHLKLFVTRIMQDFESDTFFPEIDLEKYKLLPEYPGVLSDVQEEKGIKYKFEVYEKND

Thymidylate synthase = Thymidylate synthase (Escherichia coli, UniProt C3SWJ7); experiment: Inhibitory concentration against Escherichia coli thymidylate synthase

Question: What does the source list for `Nc1nc2[nH]cc(CCc3ccc(C(=O)N[C@@H](CCC(=O)O)C(=O)O)cc3)c2c(=O)[nH]1` [PEMETREXED]?
Answer: IC50 (Dihydrofolate reductase): 66 µM; IC50 (Thymidylate synthase): 760 µM

Question: For `Cc1nc2ccc(CN(C)c3ccc(C(=O)N[C@@H](CCC(=O)O)C(=O)O)s3)cc2c(=O)[nH]1` [RALTITREXED], which IC50 (Thymidylate synthase) is on record?
Answer: 57 µM
